The record followed here is patent US20100041642A1, “UREA INHIBITORS OF MAP KINASES” (LOCUS PHARMACEUTICALS, INC., priority 2008, published 2010).

By UniProt entry, the sequences of proteins in these tests, tags left out.
UniProt Q16539, whole entry: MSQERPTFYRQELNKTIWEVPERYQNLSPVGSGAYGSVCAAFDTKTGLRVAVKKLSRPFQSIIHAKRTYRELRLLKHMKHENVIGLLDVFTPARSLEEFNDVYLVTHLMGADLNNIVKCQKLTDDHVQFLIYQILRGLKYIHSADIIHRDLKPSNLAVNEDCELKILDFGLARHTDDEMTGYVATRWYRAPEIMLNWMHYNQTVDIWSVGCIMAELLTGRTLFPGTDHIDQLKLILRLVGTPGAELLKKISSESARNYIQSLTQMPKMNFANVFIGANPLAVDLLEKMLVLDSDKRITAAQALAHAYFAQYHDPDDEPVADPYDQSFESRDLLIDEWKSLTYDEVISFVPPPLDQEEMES

The structures appear in SMILES notation.

The IC50 is the point on the concentration scale where inhibition reaches its midpoint.

For the assay, the target named is p38 (Homo sapiens, UniProt Q16539). The assay is described as follows: Protein Kinase Assay (33P incorporation from γ-[33P]ATP into GST-ATF-2). Particulars: read-out: ACT. (Activity), IC50 category in Protein Kinase Assay; 2 nM p38, preincubated 20 min at 30° C.; 10 uM cold ATP, 2 uM GST-ATF2, 70 min. The method, then:
Protein Kinase Assay. The protein kinase activity of p38 was determined by measuring the incorporation of ^33P from γ-[^33P]ATP into the GST-ATF-2 substrate, amino acids 19-96 (Upstate, N.Y. USA). The reactions were carried out in a final volume of 50 μL of 24 mM Tris-HCl buffer, pH 7.5, containing 13 mM MgCl2, 12% Glycerol, 2% DMSO, 2 mM DTT, […] of γ-[^33P]ATP (1000 Ci/mmol; 1 Ci=37 GBq) (GE Healthcare, Piscataway, N.J.), 10 uM cold ATP (GE Healthcare, Piscataway, N.J.), and 2 uM GST-ATF2. Compounds were preincubated with 2 nM p38 for 20 min at 30° C.; the reactions were initiated by the addition of GST-ATF2 and ATP and incubated for 70 min at 30° C. before being stopped by the addition of 10 μL of 600 mM phosphoric acid. The phosphorylated substrate was captured on phosphocellulose 96-well plate (Millipore MAPHNOB 10), washed with 100 mM phosphoric acid, and counted in a BeckmenCoulter LS6500 liquid scintillation counter. […] (Activity).

Regarding `Cc1ccc(NC(=O)Nc2sc(C(C)(C)C)cc2C(=O)N2CCNC(=O)C2(C)C)cc1-c1ccc(NCC(O)CO)nc1` (centres unmarked), the IC50 was less than 100 nM. The figure for `Cc1ccc(NC(=O)Nc2sc(C(C)(C)C)cc2C(=O)N2CCNC(=O)C2(C)C)cc1-c1ccc(C(=O)N(C)C)nc1` is less than 100 nM.
